Laboratory results as given in ChEMBL document CHEMBL1144350, “Synthesis and evaluation of imidazolylmethylenetetrahydronaphthalenes and imidazolylmethyleneindanes: potent inhibitors of aldosterone synthase” (J Med Chem, 2005).

Sequences of proteins named here, by UniProt entry; tags and fusion partners are left off. A change or cut given only in a name is not applied to a line headed by its entry.
UniProt P11511: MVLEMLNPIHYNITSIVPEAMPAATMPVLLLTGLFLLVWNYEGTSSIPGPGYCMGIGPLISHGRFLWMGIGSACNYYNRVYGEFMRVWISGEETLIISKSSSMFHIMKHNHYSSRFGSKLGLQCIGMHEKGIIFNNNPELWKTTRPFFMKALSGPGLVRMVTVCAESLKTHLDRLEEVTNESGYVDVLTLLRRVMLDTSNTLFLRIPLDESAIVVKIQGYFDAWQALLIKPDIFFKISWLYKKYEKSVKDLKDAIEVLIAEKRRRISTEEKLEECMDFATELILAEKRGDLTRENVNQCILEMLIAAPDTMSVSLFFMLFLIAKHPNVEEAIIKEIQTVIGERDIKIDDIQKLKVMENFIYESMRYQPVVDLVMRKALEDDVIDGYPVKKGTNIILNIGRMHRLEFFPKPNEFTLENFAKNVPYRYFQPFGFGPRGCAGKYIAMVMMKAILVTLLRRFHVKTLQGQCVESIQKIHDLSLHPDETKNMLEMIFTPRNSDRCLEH

Tests used:
Aromatase = Aromatase (Homo sapiens, UniProt P11511)
[1] = target: T1, Cytochrome P450 11B2, mitochondrial (Homo sapiens, UniProt P19099); experiment: In vitro inhibition of [14C]deoxycorticosterone binding to human cytochrome P450 11B2 expressed in hamster V79 MZh cells; type: cell-based
T1 sequence (P19099 whole entry): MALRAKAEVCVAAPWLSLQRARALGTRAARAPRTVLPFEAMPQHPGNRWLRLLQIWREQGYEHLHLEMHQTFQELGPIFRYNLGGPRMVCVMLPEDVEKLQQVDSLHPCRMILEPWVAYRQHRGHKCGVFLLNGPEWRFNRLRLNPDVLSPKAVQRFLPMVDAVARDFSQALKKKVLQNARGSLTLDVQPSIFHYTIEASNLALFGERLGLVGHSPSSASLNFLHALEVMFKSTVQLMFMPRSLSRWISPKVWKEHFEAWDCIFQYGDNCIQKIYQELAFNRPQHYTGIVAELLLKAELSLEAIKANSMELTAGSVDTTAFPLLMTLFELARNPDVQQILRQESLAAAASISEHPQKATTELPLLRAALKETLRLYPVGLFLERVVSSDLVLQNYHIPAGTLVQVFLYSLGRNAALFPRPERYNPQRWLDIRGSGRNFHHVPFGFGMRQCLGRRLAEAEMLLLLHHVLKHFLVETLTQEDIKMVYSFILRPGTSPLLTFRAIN

[2] = target: T2, Cytochrome P450 11B1, mitochondrial (Homo sapiens, UniProt P15538); experiment: In vitro inhibition of [14C]deoxycorticosterone binding to human cytochrome P450 11B1 expressed in hamster V79 MZh cells; type: cell-based
T2 sequence (P15538 whole entry): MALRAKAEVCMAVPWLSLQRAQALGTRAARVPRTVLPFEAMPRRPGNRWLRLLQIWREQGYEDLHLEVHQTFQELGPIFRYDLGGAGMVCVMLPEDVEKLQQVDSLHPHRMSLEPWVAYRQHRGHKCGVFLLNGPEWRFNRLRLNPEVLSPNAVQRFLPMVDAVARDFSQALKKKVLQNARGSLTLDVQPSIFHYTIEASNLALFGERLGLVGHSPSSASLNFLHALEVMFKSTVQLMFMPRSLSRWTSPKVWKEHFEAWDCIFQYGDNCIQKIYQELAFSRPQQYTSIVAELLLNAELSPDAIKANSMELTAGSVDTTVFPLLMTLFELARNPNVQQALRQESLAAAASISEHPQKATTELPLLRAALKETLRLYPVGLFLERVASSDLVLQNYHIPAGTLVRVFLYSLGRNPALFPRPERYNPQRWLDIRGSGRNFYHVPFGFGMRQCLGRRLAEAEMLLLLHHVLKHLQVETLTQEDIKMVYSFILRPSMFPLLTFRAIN

Structure (SMILES)	IC50 (Aromatase) [nM]	IC50 [1] [nM]	IC50 [2] [nM]
Brc1ccc2c(c1)CC/C2=C/c1c[nH]cn1	100	–	–
Clc1ccc2c(c1)CC/C2=C/c1c[nH]cn1	–	3.7	19.5
Fc1ccc2c(c1)CC/C2=C/c1c[nH]cn1	–	–	11.2
C(=C1\CCCc2ccccc21)/c1c[nH]cn1	–	9.6	3.3
